# Assay results: ChEMBL document CHEMBL1649546, “Extended-spectrum properties of CMY-30, a Val211Gly mutant of CMY-2 cephalosporinase” (Antimicrob Agents Chemother, 2009)
# Test system: Escherichia coli
# Test: Selectivity ratio of Kcat for Escherichia coli MC4100 Beta-Lactamase CMY-2 to Kcat for Escherichia coli MC4100 Beta-Lactamase CMY-30 Val211?Gly211 mutant
structure (smiles),measurement,value
O=C(Cc1cccs1)N[C@@H]1C(=O)N2C(C(=O)O)=C(/C=C/c3ccc([N+](=O)[O-])cc3[N+](=O)[O-])CS[C@H]12,Ratio,3
